Results on one compound are retold here after ChEMBL document CHEMBL2406973, “Synthesis of novel diarylamino-1,3,5-triazine derivatives as FAK inhibitors with anti-angiogenic activity” (Bioorg Med Chem Lett, 2013).

The chains behind the UniProt entries cited, without tags or fusion partners.
UniProt Q05397, whole entry: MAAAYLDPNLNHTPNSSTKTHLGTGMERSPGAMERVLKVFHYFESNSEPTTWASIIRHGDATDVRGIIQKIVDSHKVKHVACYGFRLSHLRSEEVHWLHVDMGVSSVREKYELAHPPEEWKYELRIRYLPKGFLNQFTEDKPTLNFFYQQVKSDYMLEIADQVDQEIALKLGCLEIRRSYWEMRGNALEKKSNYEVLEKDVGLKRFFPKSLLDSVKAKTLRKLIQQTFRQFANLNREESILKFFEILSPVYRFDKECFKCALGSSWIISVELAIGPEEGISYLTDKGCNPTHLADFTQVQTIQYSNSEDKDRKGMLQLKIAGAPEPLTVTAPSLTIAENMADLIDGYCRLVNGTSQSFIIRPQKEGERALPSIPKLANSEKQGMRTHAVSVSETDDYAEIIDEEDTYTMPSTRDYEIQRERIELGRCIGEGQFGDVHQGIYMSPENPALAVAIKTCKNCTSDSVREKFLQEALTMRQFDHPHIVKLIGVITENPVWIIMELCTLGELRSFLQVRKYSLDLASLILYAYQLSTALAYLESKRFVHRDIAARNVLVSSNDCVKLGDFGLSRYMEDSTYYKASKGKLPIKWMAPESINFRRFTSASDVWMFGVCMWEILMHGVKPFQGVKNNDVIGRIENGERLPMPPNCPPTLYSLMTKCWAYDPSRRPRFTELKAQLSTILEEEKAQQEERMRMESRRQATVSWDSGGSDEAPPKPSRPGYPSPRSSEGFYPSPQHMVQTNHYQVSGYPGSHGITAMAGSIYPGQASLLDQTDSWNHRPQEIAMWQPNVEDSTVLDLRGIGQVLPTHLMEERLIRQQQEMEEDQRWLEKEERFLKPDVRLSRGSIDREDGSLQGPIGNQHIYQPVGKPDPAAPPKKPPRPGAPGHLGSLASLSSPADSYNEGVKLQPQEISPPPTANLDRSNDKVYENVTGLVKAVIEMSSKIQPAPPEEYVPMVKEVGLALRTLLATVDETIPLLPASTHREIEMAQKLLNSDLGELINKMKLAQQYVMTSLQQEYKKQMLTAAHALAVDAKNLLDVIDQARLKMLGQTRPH

This experiment concerns the target Focal adhesion kinase 1 (Homo sapiens, UniProt Q05397). Kind of experiment: Inhibition of pre-activated recombinant full length FAK (unknown origin) using ULight labeled poly(Glu/Tyr) as substrate after 1.6 hrs by TR-FRET assay. On the technique in general: In TR-FRET formats the signal depends on donor and acceptor labels being close together.

One may read the IC50 as the midpoint of a concentration-inhibition curve.

Regarding `CNC(=O)c1ccccc1Nc1ncnc(Nc2ccc(N3CCOCC3)cc2OC)n1`, the IC50 was 320 nM.
